The source of these data is publication PMC12427844, “Uncovering Novel DPP-IV Inhibitory Peptides from Amphibian (Lithobates catesbeiana) Skin via Peptidomics and Molecular Simulation” (Foods, 2025).

By UniProt entry, the sequences of proteins in these tests, tags left out.
UniProt P27487, whole entry, species assumed: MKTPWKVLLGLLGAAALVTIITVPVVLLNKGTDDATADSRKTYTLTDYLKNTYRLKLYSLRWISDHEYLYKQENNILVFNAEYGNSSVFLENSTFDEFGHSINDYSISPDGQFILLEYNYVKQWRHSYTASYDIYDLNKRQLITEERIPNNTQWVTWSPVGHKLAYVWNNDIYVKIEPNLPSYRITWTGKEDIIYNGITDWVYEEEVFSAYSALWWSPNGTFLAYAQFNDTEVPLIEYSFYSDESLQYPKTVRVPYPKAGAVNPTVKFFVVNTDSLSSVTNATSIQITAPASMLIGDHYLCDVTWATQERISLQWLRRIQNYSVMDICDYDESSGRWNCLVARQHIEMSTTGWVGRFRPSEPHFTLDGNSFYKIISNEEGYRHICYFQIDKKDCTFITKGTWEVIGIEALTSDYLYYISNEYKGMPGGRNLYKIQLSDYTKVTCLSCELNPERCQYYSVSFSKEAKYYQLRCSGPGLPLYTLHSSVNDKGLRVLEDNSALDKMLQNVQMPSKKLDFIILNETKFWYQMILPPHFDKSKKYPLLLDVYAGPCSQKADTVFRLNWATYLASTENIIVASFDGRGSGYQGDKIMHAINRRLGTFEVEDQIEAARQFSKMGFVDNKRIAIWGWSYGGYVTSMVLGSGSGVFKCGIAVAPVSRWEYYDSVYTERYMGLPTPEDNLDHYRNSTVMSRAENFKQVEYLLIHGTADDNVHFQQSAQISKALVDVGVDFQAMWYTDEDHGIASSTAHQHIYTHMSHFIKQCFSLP

This experiment deals with DPP-IV (Homo sapiens, UniProt P27487). Description: DPP-IV inhibition assay (Gly-Pro p-nitroanilide substrate, absorbance 405 nm). In kind it is biochemical. The note with it: positive control. On the procedure: The inhibitory effect of LSGHs on DPP-IV enzyme activity was determined according to the method described by Zheng et al.. Briefly, 80 μL of 0.5 mM p-nitroanilide substrate solution was mixed with 80 μL of peptide solution (final concentration: 0.8 mg/mL). The mixture was incubated at 37 °C for 10 min, followed by the addition of 40 μL of DPP-IV enzyme solution (0.8 U/μL). The absorbance at 405 nm was monitored every 2 min for 90 min. All reaction components were prepared in Tris-HCl buffer (100 mM, pH 8.0). A control reaction was prepared by replacing the peptide solution with Tris-HCl buffer. The experiment was repeated three times. The DPP-IV inhibition rate was calculated using the following formula:
DPP-IV inhibition rate (%) = (Slope of control group—Slope of sample group) × 100/Slope of control group.Slope = (A2 − A1)/(T2 − T1). where Slope represents the slope of the change in absorbance values A1 and A2 at two time points T1 and T2 within the linear range.

In general, IC50 refers to the concentration needed to halve the response being measured. Low readings indicate greater potency in that assay, high ones weaker potency in that assay. For the molecule `CC[C@H](C)[C@H](N)C(=O)N1CCC[C@H]1C(=O)N[C@H](C(=O)O)[C@@H](C)CC` [IPI], half-maximal inhibition (IC50) was put at 15.9 µM.
